Assays:
[1] = biological target: Cytochrome P450 2C9 (Homo sapiens, UniProt P11712)
[2] = biological target: Cytochrome P450 2D6 (Homo sapiens, UniProt P10635)
[3] = biological target: Cytochrome P450 2C8 (Homo sapiens, UniProt P10632)
[4] = biological target: Cytochrome P450 2C19 (Homo sapiens, UniProt P33261)

Sequences of proteins named here, by UniProt entry; tags and fusion partners are left off.
UniProt P11712, whole entry: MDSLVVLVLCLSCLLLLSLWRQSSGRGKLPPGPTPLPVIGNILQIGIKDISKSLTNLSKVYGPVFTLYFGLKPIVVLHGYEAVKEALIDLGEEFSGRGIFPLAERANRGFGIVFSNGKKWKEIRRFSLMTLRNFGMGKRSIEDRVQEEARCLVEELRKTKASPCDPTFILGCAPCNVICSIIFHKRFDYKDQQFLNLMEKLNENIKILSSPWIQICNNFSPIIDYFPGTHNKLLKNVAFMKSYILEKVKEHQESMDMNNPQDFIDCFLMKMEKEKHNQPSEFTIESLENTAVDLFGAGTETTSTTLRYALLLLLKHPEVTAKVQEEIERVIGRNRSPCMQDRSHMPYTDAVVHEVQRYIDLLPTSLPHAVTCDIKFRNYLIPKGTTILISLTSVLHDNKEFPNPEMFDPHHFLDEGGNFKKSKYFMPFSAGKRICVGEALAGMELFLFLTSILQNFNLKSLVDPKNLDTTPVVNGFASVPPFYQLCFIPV
UniProt P10635, whole entry: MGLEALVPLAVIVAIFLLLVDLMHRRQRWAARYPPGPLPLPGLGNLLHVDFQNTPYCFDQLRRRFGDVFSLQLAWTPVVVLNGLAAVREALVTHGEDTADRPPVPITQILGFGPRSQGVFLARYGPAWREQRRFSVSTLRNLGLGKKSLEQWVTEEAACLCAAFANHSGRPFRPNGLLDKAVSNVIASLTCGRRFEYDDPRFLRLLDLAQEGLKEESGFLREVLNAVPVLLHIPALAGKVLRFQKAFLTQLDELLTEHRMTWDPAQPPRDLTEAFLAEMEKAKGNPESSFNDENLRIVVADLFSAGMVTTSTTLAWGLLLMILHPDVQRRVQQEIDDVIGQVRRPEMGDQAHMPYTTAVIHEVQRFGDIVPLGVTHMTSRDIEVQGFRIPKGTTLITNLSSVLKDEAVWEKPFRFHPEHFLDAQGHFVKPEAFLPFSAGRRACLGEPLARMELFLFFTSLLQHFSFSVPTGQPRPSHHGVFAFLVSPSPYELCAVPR
UniProt P10632, whole entry: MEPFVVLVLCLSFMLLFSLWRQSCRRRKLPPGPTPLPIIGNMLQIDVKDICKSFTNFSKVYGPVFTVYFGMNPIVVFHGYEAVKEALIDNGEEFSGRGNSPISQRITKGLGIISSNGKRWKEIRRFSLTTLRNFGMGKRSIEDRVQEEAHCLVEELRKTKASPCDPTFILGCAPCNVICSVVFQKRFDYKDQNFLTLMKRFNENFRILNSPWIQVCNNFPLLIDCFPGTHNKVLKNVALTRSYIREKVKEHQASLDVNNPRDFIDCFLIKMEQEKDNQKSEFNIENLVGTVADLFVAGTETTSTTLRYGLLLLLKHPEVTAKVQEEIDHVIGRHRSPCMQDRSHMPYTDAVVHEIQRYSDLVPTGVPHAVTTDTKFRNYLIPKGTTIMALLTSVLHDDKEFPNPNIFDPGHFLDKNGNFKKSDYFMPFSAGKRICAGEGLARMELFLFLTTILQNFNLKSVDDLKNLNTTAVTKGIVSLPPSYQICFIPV
UniProt P33261, whole entry: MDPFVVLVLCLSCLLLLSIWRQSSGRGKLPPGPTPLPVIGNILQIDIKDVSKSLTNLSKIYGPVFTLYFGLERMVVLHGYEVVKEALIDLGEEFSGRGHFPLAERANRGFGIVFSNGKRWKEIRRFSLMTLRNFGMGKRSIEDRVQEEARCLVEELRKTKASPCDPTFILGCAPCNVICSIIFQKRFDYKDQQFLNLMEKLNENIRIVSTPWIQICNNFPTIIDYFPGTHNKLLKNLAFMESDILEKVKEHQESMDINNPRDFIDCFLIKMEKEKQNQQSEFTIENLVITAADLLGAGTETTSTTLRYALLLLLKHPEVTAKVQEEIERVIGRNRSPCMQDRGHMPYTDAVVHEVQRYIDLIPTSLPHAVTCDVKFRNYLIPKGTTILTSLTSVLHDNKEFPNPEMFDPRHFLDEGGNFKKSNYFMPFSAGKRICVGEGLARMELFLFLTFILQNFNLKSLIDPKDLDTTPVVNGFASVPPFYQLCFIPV

## CC(C)COCC(CN(Cc1ccccc1)c1ccccc1)N1CCCC1 (stereo not drawn) [BEPRIDIL]
[1]
  IC50: > 30 µM

## C#C[C@]1(O)CC[C@H]2[C@@H]3CCC4=Cc5oncc5C[C@]4(C)[C@H]3CC[C@@]21C [DANAZOL]
[1]
  IC50: 1.44 µM
[2]
  IC50: 2.74 µM

## COC(=O)C1=C(C)NC(C)=C(C(=O)OC(C)C)C1c1cccc2nonc12 (stereo not drawn) [ISRADIPINE]
[3]
  IC50: 5 µM

## O=c1[nH]c2ccccc2n1C1CCN(CCCC(c2ccc(F)cc2)c2ccc(F)cc2)CC1 [PIMOZIDE]
[1]
  IC50: > 30 µM
[4]
  IC50: > 30 µM
[2]
  IC50: > 30 µM

## O=c1c(O)c(-c2ccc(O)c(O)c2)oc2cc(O)cc(O)c12 [QUERCETIN]
[1]
  IC50: 10.2 µM
